Measurements published in PMC8167039, “A Comparative Study of Human and Zebrafish Pregnane X Receptor Activities of Pesticides and Steroids Using In Vitro Reporter Gene Assays” (Frontiers in Endocrinology, 2021).

By UniProt entry, the sequences of proteins in these tests, tags left out.
UniProt A5WYG8, entry or part of it: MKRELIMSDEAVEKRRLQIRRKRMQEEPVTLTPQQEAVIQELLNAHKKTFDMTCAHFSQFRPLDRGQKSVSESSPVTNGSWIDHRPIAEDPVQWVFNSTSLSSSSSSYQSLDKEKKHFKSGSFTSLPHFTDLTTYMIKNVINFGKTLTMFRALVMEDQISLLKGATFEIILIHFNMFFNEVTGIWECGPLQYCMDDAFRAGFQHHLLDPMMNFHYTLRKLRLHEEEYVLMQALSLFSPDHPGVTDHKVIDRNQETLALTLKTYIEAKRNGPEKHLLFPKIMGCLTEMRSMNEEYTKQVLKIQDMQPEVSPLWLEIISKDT

Columns and labels:
[1] = molecular target: T1, zfPXR (Danio rerio, UniProt A5WYG8); assay: HG5LN Gal4-zfPXR luciferase reporter gene assay, antagonism (coexposure with clotrimazole); format: cell-based, zebrafish; details: read-out: zfPXR antagonism Min
Experimental: (§1) The cell lines used in this study are listed in Supplementary Table 3 . The HG5LN, HG5LN Gal4-hPXR and HG5LN Gal4-zfPXR cell lines were previously described ([19]). Briefly, HeLa cells stably transfected with the GAL4RE5-βGlobin-Luc-SVNeo plasmid (HG5LN cell line) ([15]). HG5LN cells were stably transfected with the pSG5-GAL4(DBD)-hPXR(LBD)-puro or pSG5-GAL4(DBD)-zfPXR(LBD)-puro plasmids.
(§2) HG5LN cells were cultured in Dulbecco’s Modified Eagle Medium: Nutrient Mixture F-12 (D-MEM/F-12) containing phenol red and 1 g/L glucose and supplemented with 5% fetal bovine serum, 100 units/mL of penicillin and 100 µg/mL of streptomycin supplemented with 1 mg/mL geneticin in a 5% CO2 humidified atmosphere at 37°C. HG5LN GAL4-hPXR and GAL4-zfPXR were cultured in the same culture medium supplemented with 0.5 µg/mL puromycin.
(§3) The ability of chemicals to modulate the hPXR and zfPXR was investigated in HG5LN, HG5LN-hPXR, HG5LN-zfPXR, and ZFL-zfPXR cell lines after exposure to serial dilutions of the compounds and measurement of luciferase activity. […] Briefly, cells were seeded in 96-well white opaque flat bottom microplates at 0.5 10^5 cells per well in culture medium. […] After 5 min, the production of light was assessed in living cells using microplate reader (MicroBeta, PerkinElmer SAS, Courtabœuf, France). […]

[2] = molecular target: T1, zfPXR; details: ZFL-zfPXR; minimal activity at 10 µM, coexposure with 0.03 µM clotrimazole; % of maximal induced by 1 µM clotrimazole
Experimental: The ability of chemicals to modulate the hPXR and zfPXR was investigated in HG5LN, HG5LN-hPXR, HG5LN-zfPXR, and ZFL-zfPXR cell lines after exposure to serial dilutions of the compounds and measurement of luciferase activity. […] Briefly, cells were seeded in 96-well white opaque flat bottom microplates at 0.5 10^5 cells per well in culture medium. […] Cells were then exposed to a concentration range of the compounds by using an automated workstation (Biomek 3000, Beckman Coulter). The final concentration of DMSO in the well never exceeds 0.1% (v/v). After 16h of exposure, medium was removed and 50 µL of test medium containing 0.3 mM D-luciferin were added per well. After 5 min, the production of light was assessed in living cells using microplate reader (MicroBeta, PerkinElmer SAS, Courtabœuf, France).
In the transactivation assay, each compound was tested at various concentrations in three independent experiments at least. For each experiment, tests were performed in quadruplicates for each concentration, and data are expressed by means values with standard deviations. […] This allowed to determine EC50 and IC50 values of tested chemicals.

[3] = molecular target: T2, hPXR (Homo sapiens, UniProt O75469)
T2 sequence (O75469 146-433 limits assumed): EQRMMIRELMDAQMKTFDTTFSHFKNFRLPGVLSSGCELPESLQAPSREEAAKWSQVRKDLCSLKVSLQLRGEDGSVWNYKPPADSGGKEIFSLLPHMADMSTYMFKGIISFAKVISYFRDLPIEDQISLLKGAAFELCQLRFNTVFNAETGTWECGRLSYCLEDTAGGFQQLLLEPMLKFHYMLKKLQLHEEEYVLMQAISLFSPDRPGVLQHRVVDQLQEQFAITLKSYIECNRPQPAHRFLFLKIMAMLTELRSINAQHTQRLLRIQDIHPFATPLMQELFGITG
Experimental: as §1, §2, §3

[4] = molecular target: T1, zfPXR; assay: HG5LN Gal4-zfPXR luciferase reporter gene assay, agonism; format: cell-based, zebrafish; details: HG5LN-zfPXR cells, 16h exposure; n.a. = not active
Experimental: as §1, §2, §3

Structure (SMILES)	remaining activity at 10 µM [1]	zfPXR antagonism Min [2]	hPXR agonism Max [3]	EC50 [4]
Clc1ccc(COC(Cn2ccnc2)c2ccc(Cl)cc2Cl)cc1 (stereo not shown) [Econazole nitrate, reference compound]	16%	2%	51%	
CCOP(=S)(OCC)Oc1nc(Cl)c(Cl)cc1Cl [Chlorpyriphos]				3000 ± 300 nM
